Values of other authors as cited in patent US6967218B2, “Pravastatin pharmaceutical formulations and methods of their use” (Biovail Laboratories, Inc., priority 2002, dated 2005).

Target: T1, HMG-CoA reductase (Homo sapiens, UniProt P04035)
T1 sequence (P04035 1-888): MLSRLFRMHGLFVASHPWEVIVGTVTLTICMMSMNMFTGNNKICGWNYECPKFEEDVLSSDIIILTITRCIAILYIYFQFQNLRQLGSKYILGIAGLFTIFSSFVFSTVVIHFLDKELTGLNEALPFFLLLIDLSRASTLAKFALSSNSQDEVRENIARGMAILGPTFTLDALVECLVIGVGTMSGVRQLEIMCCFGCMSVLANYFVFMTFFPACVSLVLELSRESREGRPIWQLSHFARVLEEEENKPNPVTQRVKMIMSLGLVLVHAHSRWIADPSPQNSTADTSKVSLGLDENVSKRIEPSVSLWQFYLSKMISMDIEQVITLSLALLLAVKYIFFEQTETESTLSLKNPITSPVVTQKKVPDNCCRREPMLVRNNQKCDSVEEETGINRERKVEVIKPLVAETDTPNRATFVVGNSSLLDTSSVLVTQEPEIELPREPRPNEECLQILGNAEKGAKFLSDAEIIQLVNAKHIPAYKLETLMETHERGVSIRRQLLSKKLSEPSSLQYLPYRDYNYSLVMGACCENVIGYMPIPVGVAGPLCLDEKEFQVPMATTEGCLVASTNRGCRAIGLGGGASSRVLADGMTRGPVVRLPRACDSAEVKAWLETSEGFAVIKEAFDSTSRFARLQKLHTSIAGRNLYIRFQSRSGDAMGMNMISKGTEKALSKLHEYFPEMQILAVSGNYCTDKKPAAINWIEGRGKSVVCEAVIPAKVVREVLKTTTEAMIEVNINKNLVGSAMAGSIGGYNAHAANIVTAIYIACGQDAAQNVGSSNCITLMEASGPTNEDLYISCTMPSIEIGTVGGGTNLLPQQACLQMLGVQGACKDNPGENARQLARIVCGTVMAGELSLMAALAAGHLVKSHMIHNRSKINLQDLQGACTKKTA
Settings: fraction of pravastatin activity

- HMG-CoA reductase inhibitory activity relative to the parent compound: one-tenth to one-fortieth
Compound: CCC(C)C(=O)O[C@H]1CC=CC2=C[C@H](O)[C@H](C)[C@H](CC[C@@H](O)C[C@@H](O)CC(=O)O)[C@H]21 (single isomer, unassigned) [3α-hydroxy isomeric metabolite, 3α-hydroxyisomer of pravastatin]
